Rtt109 Vps75: inhibitors of Candida albicans Rtt109/Vps75 histone acetyltransferase; purified Rtt109/Vps75, ThioGlo CoA-SH fluorescence, 4 h; inhibition, % at 34.9 µM; 0.16% of 330,000 active; AID 540336;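 active = inhibition of at least 50% in every replicate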
Yeast UUG start: yeast start codon fidelity modulation; AID 602363; activity score, % at 18.7 µM; S. cerevisiae UUG-firefly luciferase reporter, luminescence/redox ratio; 0.13% of 350,000 active;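 active means replicate mean at a twofold rise or more, about +100% in these data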;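 further: firefly luciferase made from a UUG start codon reports start codon fidelity; reporter light over untreated wells divided by growth signal over untreated wells; some hits fall short of that in this replicate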
CDK5 inh: inhibitors of human CDK5/p35 kinase | Q00535+Q15078 | Recombinant CDK5/p35, ADP-Glo luminescence, 60 min | inhibition, % at 10 µM | 0.01% of 330,000 active | AID 488839;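 active = highest replicate inhibition of at least 50% and at least 75% of replicates reaching 50%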;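 note: plate controls were DMSO neutral control for no effect and GW8510 at 10 µM for full effect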
Statin myotox sup: suppressors of simvastatin-induced myotoxicity in C2C12 myotubes; rescue of ATP level, % at 7.49 µM; ATP luminescence, 48 h; scaled: DMSO 0, geranylgeraniol control 100; 0.78% of 330,000 active; AID 602340;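 active = mean ATP rescue above about 67%, or every replicate alone reaching that limit, limit read from the data, passing the limit was not always enough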;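 note: myotubes were challenged with 10 µM simvastatin during compound exposure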
Cneo AK release: Cryptococcus neoformans lysis via adenylate kinase release. C. neoformans lysis, adenylate kinase release luminescence, 4 h; normalised: neutral wells 0, clomiphene wells 100. lysis activity, % at 15 µM. 0.2% of 360,000 active;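 active = mean lysis activity across replicates of at least 80%, whatever share of replicates individually reach that level; inactive = mean lysis activity below 80%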
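Assay system: log-phase C. neoformans yeast / Quantity: yeast cell density of 5 × 10^6 cells/mL / Medium: fresh YPD growth medium / Compound: single dose / Timing: static 4 h at 37 °C with compound, 1 h detection / Measured by: adenylate kinase release luminescence / Read-out: lysis from increased AK signal / Benchmarks: Clomiphene as positive lysis control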
An asterisk follows results filed as active. Most compounds without a hit are left out; they make up all but 1% or so of the library.

Sample of the layout (2 entries):
Results for CCC(=O)N(C)C[C@H]1Oc2cc(C#CC(C)(C)O)ccc2S(=O)(=O)N([C@H](C)CO)C[C@@H]1C ?
Yeast UUG start: 0; Statin myotox sup: -6; Cneo AK release: 101*

What do the screens show for `C[C@@H](NC(=O)C[C@@H]1C[C@@H]2c3cc(NC(=O)c4ccc5c(c4)OCO5)ccc3O[C@@H]2[C@H](CO)O1)c1ccccc1`?
Statin myotox sup: 1; Cneo AK release: -18

Results, from the first entry:
Results for CCC(=O)N(C)C[C@H]1Oc2cc(C#CC(C)(C)O)ccc2S(=O)(=O)N([C@H](C)CO)C[C@@H]1C ?
Yeast UUG start: 0; Statin myotox sup: -6; Cneo AK release: 101*

What do the screens show for `C[C@@H](NC(=O)C[C@@H]1C[C@@H]2c3cc(NC(=O)c4ccc5c(c4)OCO5)ccc3O[C@@H]2[C@H](CO)O1)c1ccccc1`?
Statin myotox sup: 1; Cneo AK release: -18

Results for COc1ccc(-c2cnc3c(c2)C(=O)N([C@@H](C)CO)C[C@H](C)[C@@H](CN(C)Cc2ccccc2)O3)cc1 ?
Yeast UUG start: 17; Statin myotox sup: 35; Cneo AK release: -4

Results for O=C(NCC[C@@H]1CC[C@@H](NS(=O)(=O)c2ccc(Cl)cc2)[C@H](CO)O1)c1ccccc1F ?
Yeast UUG start: 3; Statin myotox sup: -4; Cneo AK release: -2

Results for C[C@@H]1CN([C@H](C)CO)C(=O)c2cc(N(C)C)ccc2O[C@@H](C)CCCCO[C@@H]1CN(C)C(=O)c1ccncc1 ?
Yeast UUG start: -3; Statin myotox sup: 21; Cneo AK release: -2

Results for CO[C@H]1CN(C)C(=O)c2ccc(NS(=O)(=O)c3ccccc3Cl)cc2OC[C@@H](C)NC[C@H]1C ?
Statin myotox sup: -2

What do the screens show for `C[C@H](CO)N1C[C@H](C)[C@H](CN(C)C(=O)NC2CCCC2)Oc2cc(/C=C/c3ccccc3)ccc2S1(=O)=O`?
Yeast UUG start: -11; Statin myotox sup: 11; Cneo AK release: 6

Results for C[C@@H]1CN([C@@H](C)CO)S(=O)(=O)c2ccc(/C=C/c3ccccc3)cc2O[C@@H]1CN(C)C(=O)NC1CCCC1 ?
Yeast UUG start: -11; Statin myotox sup: 93*; Cneo AK release: 6

What do the screens show for `COc1ccc(C#Cc2ccc3c(c2)O[C@@H](CN(C)C(C)=O)[C@@H](C)CN([C@H](C)CO)S3(=O)=O)cc1`?
Yeast UUG start: 19; Statin myotox sup: 9; Cneo AK release: 102*

What do the screens show for `COCC#Cc1ccc2c(c1)O[C@H](CN(C)S(=O)(=O)c1ccc(OC)cc1)[C@H](C)CN([C@H](C)CO)S2(=O)=O`?
Statin myotox sup: -18; Cneo AK release: 87*

Results for CO[C@@H]1CN(C)C(=O)c2cc(NC(=O)Nc3ccccc3)ccc2OC[C@@H](C)N(C(=O)Nc2c(C)noc2C)C[C@@H]1C ?
Yeast UUG start: 29; Statin myotox sup: -11; Cneo AK release: -10

Results for CN1c2ccc(-c3cccc(F)c3)cc2[C@@H]2[C@@H](CCN2C(=O)c2ccccc2F)[C@H]1CO ?
Yeast UUG start: -12; Statin myotox sup: 1; Cneo AK release: 2

How did Cc1cc(Cl)c(S(=O)(=O)Nc2ccc3c(c2)OCO3)cc1OCC(N)=O do in these assays?
Rtt109 Vps75: 8; Yeast UUG start: -11; CDK5 inh: 0; Statin myotox sup: 101*; Cneo AK release: 0

How did O=C(O)CC(c1ccccc1)n1cccc1 (configuration not stated) do in these assays?
Rtt109 Vps75: 2; Yeast UUG start: -13; CDK5 inh: -2; Statin myotox sup: 115*; Cneo AK release: -1

Results for COc1ccccc1C(=O)N1C[C@@H]2[C@H](c3ccccc31)[C@@H](CO)N2C(=O)Cc1ccccc1 ?
Yeast UUG start: -3; Statin myotox sup: 20; Cneo AK release: 1

How did COc1ccccc1C(=O)N1C[C@H]2[C@@H](c3ccccc31)[C@@H](CO)N2C(=O)Cc1ccccc1 do in these assays?
Yeast UUG start: 21; Statin myotox sup: -24; Cneo AK release: 101*

What do the screens show for `CCN(C(=O)c1nn(-c2ccc(OC)cc2)c(=O)c2c1c1ccccc1n2C)c1ccc(OC)cc1`?
Yeast UUG start: 15; CDK5 inh: 0; Statin myotox sup: 107*; Cneo AK release: -2

Results for CCCCN(C)CCNC(=O)c1nn(-c2ccc(OC)cc2)c(=O)c2c1c1ccccc1n2C ?
Rtt109 Vps75: 4; Yeast UUG start: -4; CDK5 inh: -1; Statin myotox sup: 0; Cneo AK release: 2

What do the screens show for `c1ccc(-n2cnnc2SCc2cn3cccnc3n2)cc1`?
Rtt109 Vps75: -7; Yeast UUG start: -20; CDK5 inh: 1; Statin myotox sup: 86*; Cneo AK release: 8

Results for O=C(C[C@@H]1CC[C@@H]2[C@H](COC[C@H](O)CN2C(=O)Nc2cccc(F)c2)O1)NCc1ccccc1Cl ?
Statin myotox sup: 0; Cneo AK release: -2

Results for CN1[C@@H]2c3ccc(-c4cccnc4)c(=O)n3C[C@@H]2[C@@H](CO)[C@@H]1C(=O)N1CCc2ccccc2C1 ?
Statin myotox sup: 23; Cneo AK release: 113*

What do the screens show for `Cc1cccc(NC(=S)NC2CC3C=CC2C3)c1` (configuration not stated)?
Rtt109 Vps75: 1; Yeast UUG start: -29; CDK5 inh: -1; Statin myotox sup: 100*; Cneo AK release: 19

What do the screens show for `COc1ccc(C[C@@H]2CCc3cnnn3COC[C@@H](c3ccccc3)NC2=O)cc1`?
Cneo AK release: 4

What do the screens show for `Cc1nc2nc(COc3ccccc3)nn2c(C)c1Cl`?
Rtt109 Vps75: -1; Yeast UUG start: -19; CDK5 inh: -3; Statin myotox sup: 73*; Cneo AK release: -2

Results for C[C@@H]1CN([C@H](C)CO)S(=O)(=O)c2ccc(-c3cccnc3)cc2O[C@@H]1CN(C)Cc1ccncc1 ?
Yeast UUG start: -18; Statin myotox sup: -26; Cneo AK release: -2

Results for C[C@H](CO)N1C[C@H](C)[C@@H](CN(C)C(=O)c2cccnc2)Oc2ncc(C#CCN(C)C)cc2C1=O ?
Yeast UUG start: -18; Statin myotox sup: 13; Cneo AK release: 2

How did COc1ccc(/C=N/NC(=O)COc2ccc(Cl)cc2Cl)cc1Cn1nc(C)cc1C do in these assays?
Rtt109 Vps75: 54*; CDK5 inh: 1

How did CCOC(=O)C1(CCSC)NC(c2ccco2)C2C(=O)N(CC)C(=O)C21 (configuration not stated) do in these assays?
Rtt109 Vps75: 5; Yeast UUG start: -1; CDK5 inh: 0; Statin myotox sup: 104*; Cneo AK release: 2

What do the screens show for `CSc1nncn1/N=C/c1ccc2c(c1)OCO2`?
Rtt109 Vps75: 8; Yeast UUG start: -3; CDK5 inh: 1; Statin myotox sup: 106*; Cneo AK release: 1

How did O=C(C[C@H]1CC[C@@H](NC(=O)c2ccc3c(c2)OCO3)[C@H](CO)O1)NCc1ccc(Oc2ccccc2)cc1 do in these assays?
Statin myotox sup: 68*; Cneo AK release: -1

What do the screens show for `CCCNC(=O)N1C[C@@H](O)COC[C@H]2O[C@@H](CC(=O)N3CCCCC3)CC[C@@H]21`?
Yeast UUG start: 4; Statin myotox sup: -8; Cneo AK release: -2

How did CCCCN(CC)CCCNC(=O)c1cc2c(=O)n(CC)c3ccccc3c2s1 do in these assays?
Rtt109 Vps75: -5; Yeast UUG start: 28; CDK5 inh: 0; Statin myotox sup: 97*; Cneo AK release: -1

2 records picked at random from the list so far, as already listed:
Results for CO[C@@H]1CN(C)C(=O)c2cc(NC(=O)Nc3ccccc3)ccc2OC[C@@H](C)N(C(=O)Nc2c(C)noc2C)C[C@@H]1C ?
Yeast UUG start: 29; Statin myotox sup: -11; Cneo AK release: -10

Results for CN1c2ccc(-c3cccc(F)c3)cc2[C@@H]2[C@@H](CCN2C(=O)c2ccccc2F)[C@H]1CO ?
Yeast UUG start: -12; Statin myotox sup: 1; Cneo AK release: 2
